US4908365A, “Benzhydryloxyethylpiperazine derivatives, processes for their preparation and pharmaceutical compositions in which they are present” (priority 1986, dated 1990)

How the values were obtained:
mice = assay: Study of the spontaneous motility (motor activity), photoelectric actimeter; format: in vivo; settings: mouse, i.p., weak dose
histamine [1] = assay: Bronchospasm by inhalation of a histamine solution; format: in vivo, guinea-pigs; settings: guinea-pig, p.o.; 30 min
histamine [2] = assay: Antihistaminic activity (histaminic shock, lethal dose of histamine); format: in vivo, guinea-pigs; settings: guinea-pig, p.o.; 30 min

Structure (SMILES) | Motor activity (mice) | Bronchospasm ED50 (histamine [1]) [mg/kg] | Histaminic shock ED50 (histamine [2]) [mg/kg]
Cc1ccc(C(OCCN2CCN(CCn3cnc4c3c(=O)n(C)c(=O)n4C)CC2)c2ccccc2)cc1 (centres unmarked) | increase | 0.19 | 0.55
Cn1c(=O)c2c(ncn2CCN2CCN(CCOC(c3ccccc3)c3ccccc3)CC2)n(C)c1=O | – | 0.59 | 2.57
